Data from patent US6420532 (SYNAPTIC PHARMACEUTICAL, dated 2002).
Each block holds one binder with its values, some of them ahead of it.

Chains of the proteins cited; added tags and fusions are not shown. A change or cut given only in a name is not applied to a line headed by its entry. A line that says so, or that is headed by a name, gives the form on record, which may keep a tag or linker.
Y2-like receptor population expressed by human SK-N-Be(2) neuroblastoma cells, one chain, as listed by the source: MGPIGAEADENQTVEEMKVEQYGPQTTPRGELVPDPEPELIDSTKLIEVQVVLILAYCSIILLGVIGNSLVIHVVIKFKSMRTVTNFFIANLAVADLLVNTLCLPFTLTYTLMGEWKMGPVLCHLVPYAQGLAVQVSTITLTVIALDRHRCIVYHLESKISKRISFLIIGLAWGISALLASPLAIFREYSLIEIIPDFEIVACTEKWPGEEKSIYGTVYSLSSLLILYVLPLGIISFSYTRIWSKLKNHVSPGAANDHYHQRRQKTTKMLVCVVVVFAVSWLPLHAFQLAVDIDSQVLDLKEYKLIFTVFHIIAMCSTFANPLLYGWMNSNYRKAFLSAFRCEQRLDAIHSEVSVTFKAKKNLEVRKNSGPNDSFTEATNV

Legend:
[1] = biological target: T1, rat Y2a receptor (encoded by rs5a) (rat); test: 125I-PYY displacement, COS-7 membranes, Ki from IC50
T1 chain: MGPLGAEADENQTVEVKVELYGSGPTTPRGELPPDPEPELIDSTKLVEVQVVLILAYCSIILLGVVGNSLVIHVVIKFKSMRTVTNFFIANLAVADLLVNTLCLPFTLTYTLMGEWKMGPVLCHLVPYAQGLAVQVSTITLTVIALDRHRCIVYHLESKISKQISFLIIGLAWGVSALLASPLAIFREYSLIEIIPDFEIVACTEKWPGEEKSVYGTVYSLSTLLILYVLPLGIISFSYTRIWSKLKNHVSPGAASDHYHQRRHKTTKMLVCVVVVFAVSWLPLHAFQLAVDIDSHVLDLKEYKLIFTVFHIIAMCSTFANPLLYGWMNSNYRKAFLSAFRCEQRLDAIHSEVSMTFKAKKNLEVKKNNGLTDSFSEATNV

[2] = biological target: Y2-like receptor population expressed by human SK-N-Be(2) neuroblastoma cells (human); test: 125I-PYY displacement, SK-N-Be(2) membranes, Ki from IC50

Ki [1]: 0.093 µM
Ki [2]: 0.0031 µM
B1: porcine NPY20-36 (peptide, UniProt P01304 29-45, looked up)
peptide: YYSALRHYINLITRQRY
modifications: C-terminal amide
notes: range 20-36; also called NPY20-36, porcine

Ki [1]: 0.031 µM
Binder: PAEDMARYYSALRHYINLITRQRY (peptide, UniProt P01303 41-64, looked up, C-terminal amide, range 13-36) [NPY13-36, human]
